The results in this text go back to patent US9469615B2, “Quinoxalines and AZA-quinoxalines as CRTH2 receptor modulators” (Merck Sharp & Dohme Corp., priority 2010, dated 2016).

By UniProt entry, the sequences of proteins in these tests, tags left out.
UniProt Q9Y5Y4, whole entry: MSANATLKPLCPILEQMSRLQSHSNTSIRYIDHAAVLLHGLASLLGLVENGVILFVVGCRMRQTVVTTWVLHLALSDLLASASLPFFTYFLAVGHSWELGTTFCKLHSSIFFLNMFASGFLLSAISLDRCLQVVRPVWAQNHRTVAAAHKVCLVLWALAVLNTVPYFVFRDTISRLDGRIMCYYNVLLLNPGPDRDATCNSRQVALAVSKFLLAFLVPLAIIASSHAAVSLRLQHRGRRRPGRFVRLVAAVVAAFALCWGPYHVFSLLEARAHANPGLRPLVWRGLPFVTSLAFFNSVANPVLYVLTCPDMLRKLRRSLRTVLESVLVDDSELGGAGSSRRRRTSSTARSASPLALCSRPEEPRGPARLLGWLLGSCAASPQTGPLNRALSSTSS

Each structure is given as a SMILES string.

The target of the assay is hCRTH2 (Homo sapiens, UniProt Q9Y5Y4). Description: Radioligand binding assay ([3H]PGD2 competition, HEK-hCRTH2 membranes).

What is called Ki is a measure of affinity in units of concentration, obtained from inhibition or displacement.

`O=C(O)CCCc1nc2cc(C(=O)N3CCN(c4ccc(F)cc4)CC3)ccc2nc1-c1ccccc1` displayed a Ki ([3H]PGD2 competition, Table B) of 201 to 700 nM.
In the case of `O=C(O)CCCCc1nc2cc(C(=O)N[C@H](c3ccc(F)cc3)C(F)(F)F)ccc2nc1-c1ccc(Cl)cc1`, the Ki ([3H]PGD2 binding, rated A-E (Table A)) fell in the range of 2.1 to 20 nM.
On to `O=C(O)CCCCc1nc2cc(C(=O)N[C@@H]3CCS(=O)(=O)c4ccccc43)ccc2nc1-c1ccc(F)cc1`, for which the Ki ([3H]PGD2 competition, Table B) is 201 to 700 nM.
`CC(CCc1nc2cc(C(=O)N3CCN(c4ccccc4)CC3)ccc2nc1-c1ccc(C(F)(F)F)cc1)CC(=O)O` (stereo not shown): the inhibition constant (Ki) ([3H]PGD2 competition, Table B) lay within 2.1 to 20 nM.
